Apparent affinities of Ab-95 variants for a coronavirus HR2 peptide

Target: peptide PDVDLGDISGINAS, taken from heptad repeat 2 (HR2) of SARS-CoV-2 spike.

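The starting antibody came from a phage panning campaign against this peptide. The library (AAYL52) carries one to three amino acid substitutions per variant, with no insertions or deletions. AlphaSeq pools MATa yeast showing the antibodies with MATalpha yeast showing the peptide. After mating in shaken culture at 30 °C for 16 h, diploids were selected and their barcode pairs sequenced. Each replicate has its own calibration line, from reference interactions of the BCL2 family. The assay was run in three technical replicates.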

The variants keep the heavy chain, the linker and the frameworks of Ab-95 (scFv order VH, a 15-residue (Gly4Ser)3 linker, VL).
VH: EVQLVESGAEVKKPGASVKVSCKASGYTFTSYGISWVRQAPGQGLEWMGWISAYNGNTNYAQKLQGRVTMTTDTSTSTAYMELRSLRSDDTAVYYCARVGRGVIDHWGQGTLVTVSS
VL: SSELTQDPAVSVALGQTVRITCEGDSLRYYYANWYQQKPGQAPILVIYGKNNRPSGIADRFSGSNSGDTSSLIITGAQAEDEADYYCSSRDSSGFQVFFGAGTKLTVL

Variants are written as CDR1, CDR2 and CDR3 of the light chain (limits as in the source). Parent: EGDSLRYYYAN, GKNNRPS, SSRDSSGFQVF. Values are log10 of the apparent Kd in nM; lower means stronger binding. A pair that was not seen in that replicate is written "ND"; this usually means weak binding, but a binder can also be missed. Nonspecific signal, from three strains lacking the peptide, appeared in 28% of pairings of library AAYL52, centred on 3.91 (5% of these signals below 2.90); values are not corrected for it. Also given: how often the same scFv was detected with the empty control strains, with their mean in brackets. In this assay the parent's reference entry averaged 2.31; its copy inside this library read 2.25.

| # | CDR-L1 | CDR-L2 | CDR-L3 | replicates, log10 nM | empty controls |
|---|---|---|---|---|---|
| 1 | EGDSLLYYYAN | GKNNRPS | SSRDSSLFQVF | 3.40 2.91 3.86 | 1/9 (4.98) |
| 2 | IGDSLREYYAN | GKNNRPS | SSRDSDGFQVF | 2.78 2.15 2.80 | 1/9 (3.80) |
| 3 | EGDSLRYYYAN | GKNNRPS | SSRDSSGFKVF | 2.37 2.66 2.80 | 2/9 (4.56) |
| 4 | EGDSLRMYYAW | GKNNPPS | SSRDSSGFQVF | 3.53 3.73 ND | 4/9 (4.67) |
| 5 | EGDSLLYYYDN | GKNNRPS | SSRDSSPFQVF | 4.33 4.44 ND | 3/9 (4.47) |
| 6 | EGDSLRYYYAN | GKNNRPS | SSRDSMGFQPG | 2.11 2.03 1.49 | 5/9 (3.91) |
| 7 | EGDSLRYYYAN | GKNNRPS | SSWDSSGAQVF | 2.44 2.44 2.17 | 2/9 (4.19) |
| 8 | EGDSLRYYMAN | GKNDRPS | SSRDSSGFTVF | 2.10 1.86 1.47 | 0/9 |
| 9 | EGDFLRYYYAN | GKNNRPS | SSRDSLLFQVF | ND ND ND | 0/9 |
| 10 | EGDSLRYYYAN | GKNNRYS | SMRDSIGFQVF | ND ND 3.65 | 1/9 (4.22) |
| 11 | EGDSVRYYYAN | GKNNRPS | SSRDSSGIQCF | 4.21 4.29 ND | 2/9 (3.58) |
| 12 | EGDSLCYYYAN | GKNNHWS | SSRDSSGFQVF | 4.58 ND ND | 1/9 (4.25) |
| 13 | EGDSLRYYYAN | PKNNRPS | SSRLSSGFQTF | ND ND ND | 4/9 (4.55) |
| 14 | EGDSLRYYYLN | GKNNRPY | SSRDSSQFQVF | 3.93 ND ND | 3/9 (4.23) |
| 15 | EGMSLRYYYRN | GKNNRPS | SARDSSGFQVF | 3.46 5.27 ND | 2/9 (4.44) |
| 16 | MGKSLRYYYAN | GCNNRPS | SSRDSSGFQVF | 4.12 3.78 ND | 2/9 (3.61) |
| 17 | EGDRLRYYYAN | GTNNRPV | SSRDSSGFQVF | 4.38 3.10 ND | 3/9 (3.30) |
| 18 | HGDSLRYYYAN | IKKNRPS | SSRDSSGFQVF | ND 4.68 ND | 2/9 (3.26) |
| 19 | EGDSLRYYYKN | GKNNRLS | SSRDTSGFQVF | 4.79 ND ND | 2/9 (3.87) |
| 20 | EKDYLRYYYAN | GKNNRPS | SSRDSSGFPVF | ND ND ND | 1/9 (3.76) |
| 21 | EGDSDRYYYAN | GKNNRPS | LSRDSVGFQVF | ND 4.28 4.52 | 4/9 (4.36) |
| 22 | EGDSLRYYYAN | GCNYRPS | WSRDSSGFQVF | ND ND ND | 5/9 (3.95) |
| 23 | EGDCLRYYYAN | GKQNRPS | NSRDSSGFQVF | 4.30 ND ND | 3/9 (4.07) |
| 24 | EGDSLRYYYAN | GKNNHPS | SSRDFSGFQVG | 5.42 3.28 3.73 | 7/9 (4.43) |
| 25 | EPDSLRYYYPN | FKNNRPS | SSRDSSGFQVF | 3.91 4.56 ND | 4/9 (4.18) |
| 26 | EGDSLRYYYAN | LKNNRPS | SSVDTSGFQVF | ND ND ND | 1/9 (4.15) |
| 27 | KGDSLRYYYAN | SKNNLPS | SSRDSSGFQVF | 2.81 3.05 2.61 | 4/9 (3.94) |
| 28 | EGDSLYYYYAN | GKNNTPS | SSRDMSGFQVF | 3.93 4.33 3.16 | 2/9 (4.12) |
| 29 | EGDSLRYYDAN | GKNNRPS | SHTDSSGFQVF | 3.34 3.30 3.02 | 1/9 (4.82) |
| 30 | EGDSLRYYYAN | GTNNRPS | SSRDSSGVQVK | 4.05 ND ND | 1/9 (4.57) |
| 31 | EGDSLRYYYAP | GKNNRIS | SSRDSSKFQVF | ND 4.06 3.07 | 0/9 |
| 32 | EGDSLRYYRAN | GKNNRPS | SSRDFSGFQVF | 2.57 3.28 2.18 | 2/9 (3.92) |
| 33 | EGWSLRYYYAN | AKNNRPS | SSRDSYGFQVF | ND 4.39 4.25 | 2/9 (3.69) |
| 34 | EGDSLRYYYAN | GKNRRMS | SSRDSSGFQVQ | 3.59 4.32 2.81 | 4/9 (3.65) |
| 35 | EGDSLRYYYHN | GKNNRPS | SSRDSSGFQVF | 3.43 3.52 4.30 | 1/9 (2.83) |
| 36 | EGMQLRYIYAN | GKNNRPS | SSRDSSGFQVF | 2.82 3.94 ND | 2/9 (3.68) |

Data: MIT Lincoln Laboratory AlphaSeq set, Engelhart et al. 2022, doi:10.1038/s41597-022-01779-4, as distributed in FLAb.